Laboratory results: PMC7593677, “Discovery of N-(2-Amino-4-Fluorophenyl)-4-[bis-(2-Chloroethyl)-Amino]-Benzamide as a Potent HDAC3 Inhibitor” (Frontiers in Oncology, 2020)

Biological target: T1, HDAC8 (Homo sapiens, UniProt Q9BY41)
T1 construct: purchased BPS Bioscience
T1 sequence (Q9BY41 1-377): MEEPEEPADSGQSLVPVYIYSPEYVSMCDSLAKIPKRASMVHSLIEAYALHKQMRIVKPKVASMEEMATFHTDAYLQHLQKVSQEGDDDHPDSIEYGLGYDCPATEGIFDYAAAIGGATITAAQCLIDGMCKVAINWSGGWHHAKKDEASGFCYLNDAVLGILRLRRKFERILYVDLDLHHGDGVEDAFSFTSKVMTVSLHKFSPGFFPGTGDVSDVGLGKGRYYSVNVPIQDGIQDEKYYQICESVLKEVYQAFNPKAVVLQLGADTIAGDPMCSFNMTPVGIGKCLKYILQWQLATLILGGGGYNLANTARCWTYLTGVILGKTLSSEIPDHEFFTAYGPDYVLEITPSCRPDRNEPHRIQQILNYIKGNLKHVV
Experiment: biochemical
Protocol: All of the HDAC enzymes tested were purchased from BPS Bioscience. First, 20 μL of each recombinant HDAC enzyme solution (HDAC1, 2, 3, 4, 6, 7, 8, and 9) was mixed with various concentrations of tested compound samples (20 μL) in a 96-well plate. The mixture was incubated at 30°C for 1 h for the dose-dependent assay. Additionally, mixtures were incubated for 15, 30, 60, and 90 min, for the time-dependent assay, and then 10 μL of fluorogenic substrate [3 mM Boc-Lys(acetyl)-AMC or Boc-Lys (trifluoroacetyl)-AMC for HDAC1/2/3/6 or HDAC4/7/8/9, respectively] was added. Then, the acetylation reaction was initiated by adding HDAC substrate working solution and incubating at 30°C for 2 h. After the desired time, 10 μL developer with trypsin and trichostatin A was added to stop the reaction, and then the mixture was incubated at 30°C for another 30 min.
A microplate reader was used to determine fluorescence intensity at excitation: 360 nm and emission: 460 nm. The inhibition ratios were calculated by comparing the fluorescence intensities from tested wells to those of controls. The IC50 curves and values were then obtained with GraphPad Prism 6.0 software.

For `O=C(CCCCCCC(=O)Nc1ccccc1)NO` [SAHA, Vorinostat, reference compound], which IC50 is on record?
Its IC50 is 4.12 µM.
